{
  "sequences": {"note": "Chains of the proteins cited; added tags and fusions are not shown.", "UniProt Q9UQD0, whole entry": "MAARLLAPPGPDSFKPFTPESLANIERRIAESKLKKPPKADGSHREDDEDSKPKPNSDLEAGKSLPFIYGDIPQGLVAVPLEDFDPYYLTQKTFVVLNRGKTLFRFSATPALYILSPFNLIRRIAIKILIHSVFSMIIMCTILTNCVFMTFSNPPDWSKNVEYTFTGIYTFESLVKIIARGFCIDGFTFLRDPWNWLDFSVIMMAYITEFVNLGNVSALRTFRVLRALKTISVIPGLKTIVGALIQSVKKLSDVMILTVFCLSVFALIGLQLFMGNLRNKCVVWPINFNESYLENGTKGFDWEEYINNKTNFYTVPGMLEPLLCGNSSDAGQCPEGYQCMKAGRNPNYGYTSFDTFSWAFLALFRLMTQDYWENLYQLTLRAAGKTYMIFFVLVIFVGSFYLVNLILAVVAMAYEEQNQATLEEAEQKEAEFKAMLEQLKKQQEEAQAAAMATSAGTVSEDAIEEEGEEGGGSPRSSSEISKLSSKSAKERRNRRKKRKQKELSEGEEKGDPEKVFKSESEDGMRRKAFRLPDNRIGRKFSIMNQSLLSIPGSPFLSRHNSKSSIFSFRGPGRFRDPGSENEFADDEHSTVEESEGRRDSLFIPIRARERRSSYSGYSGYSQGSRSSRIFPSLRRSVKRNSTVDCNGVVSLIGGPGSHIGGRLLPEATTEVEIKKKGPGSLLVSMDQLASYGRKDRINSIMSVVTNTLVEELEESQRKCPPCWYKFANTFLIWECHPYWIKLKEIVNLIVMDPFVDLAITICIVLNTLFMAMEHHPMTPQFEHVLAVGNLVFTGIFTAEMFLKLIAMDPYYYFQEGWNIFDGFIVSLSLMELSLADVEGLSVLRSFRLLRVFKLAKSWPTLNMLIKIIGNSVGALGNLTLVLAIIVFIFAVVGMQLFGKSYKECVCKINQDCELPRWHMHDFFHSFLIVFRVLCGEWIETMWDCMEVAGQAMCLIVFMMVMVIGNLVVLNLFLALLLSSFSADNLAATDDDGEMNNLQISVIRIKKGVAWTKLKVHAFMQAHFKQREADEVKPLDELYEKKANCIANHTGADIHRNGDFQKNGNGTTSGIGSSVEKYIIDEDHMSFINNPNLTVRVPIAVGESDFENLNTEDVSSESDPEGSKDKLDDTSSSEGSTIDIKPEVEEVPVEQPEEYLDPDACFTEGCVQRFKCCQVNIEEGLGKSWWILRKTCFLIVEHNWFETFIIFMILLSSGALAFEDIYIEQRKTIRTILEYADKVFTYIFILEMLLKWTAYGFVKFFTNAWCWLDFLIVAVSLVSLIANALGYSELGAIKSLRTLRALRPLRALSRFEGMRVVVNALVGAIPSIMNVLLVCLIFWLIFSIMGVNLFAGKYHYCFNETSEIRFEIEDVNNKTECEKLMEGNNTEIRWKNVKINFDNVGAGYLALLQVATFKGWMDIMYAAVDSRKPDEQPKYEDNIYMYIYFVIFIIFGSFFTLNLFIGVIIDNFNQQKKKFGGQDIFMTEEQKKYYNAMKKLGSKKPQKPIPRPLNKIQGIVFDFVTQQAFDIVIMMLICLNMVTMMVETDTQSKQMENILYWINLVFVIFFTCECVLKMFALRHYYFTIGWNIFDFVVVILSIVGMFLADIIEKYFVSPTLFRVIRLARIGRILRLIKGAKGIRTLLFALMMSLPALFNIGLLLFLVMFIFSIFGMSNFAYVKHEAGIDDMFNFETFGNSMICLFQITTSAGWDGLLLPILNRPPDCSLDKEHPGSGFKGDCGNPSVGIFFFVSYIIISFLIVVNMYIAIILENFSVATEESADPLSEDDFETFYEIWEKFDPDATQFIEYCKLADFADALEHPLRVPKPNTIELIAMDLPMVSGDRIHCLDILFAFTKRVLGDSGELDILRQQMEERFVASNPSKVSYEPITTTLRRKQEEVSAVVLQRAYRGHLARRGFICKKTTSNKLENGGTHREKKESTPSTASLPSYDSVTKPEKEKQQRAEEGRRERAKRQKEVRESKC"},
  "source": "patent US20160287666A1",
  "about": "(priority 2015, published 2016)",
  "target": "human Nav1.6 (Homo sapiens, UniProt Q9UQD0)",
  "assay_type": "cell-based",
  "data": [
    {"substance": "GPQCQKWMQTCDRERKCCEGFVCTLWCRKKLW-COOH [NV1D3034]", "values": [
      {"measurement": "selectivity towards Nav1.7 compared to recombinant Protoxin-II", "result": "improved selectivity"}
    ]}
  ]
}
